## Binding of CDR-mutated scFvs to a peptide of the spike HR2 region

Source: Li et al. 2023 (doi:10.1038/s41467-023-39022-2), MIT Lincoln Laboratory and A-Alpha Bio; data file from the FLAb repository.

Binding partner: SARS-CoV-2 spike HR2 peptide, sequence PDVDLGDISGINAS.

Ab-14 is the parent antibody, in scFv form: VH, then a 15-residue (Gly4Ser)3 linker, then VL. The heavy chain is unchanged in all variants.
VH: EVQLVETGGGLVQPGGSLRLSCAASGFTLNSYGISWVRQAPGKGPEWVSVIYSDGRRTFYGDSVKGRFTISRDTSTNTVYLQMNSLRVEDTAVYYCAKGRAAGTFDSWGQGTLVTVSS
VL: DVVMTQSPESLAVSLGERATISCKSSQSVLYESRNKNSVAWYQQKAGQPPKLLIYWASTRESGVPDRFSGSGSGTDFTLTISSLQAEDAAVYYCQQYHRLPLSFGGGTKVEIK

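Phage display of a naive human antibody library on the peptide gave the parent. This is the validation round: designs drawn from the data on random variants, tested in the same kind of assay. Their group label is 14L_En_Gibbs (En: ensemble of fine-tuned language models; Gibbs: Gibbs sampling). In AlphaSeq, yeast of one mating type display the scFv and yeast of the other type display the target. The frequency of each diploid, read from paired DNA barcodes, reflects how well the two displayed proteins bind. A regression on co-assayed BCL2-family reference pairs converts the normalised counts of each replicate to an apparent Kd. There are six technical replicates.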

The parent's light chain CDRs are KSSQSVLYESRNKNSVA, WASTRES, QQYHRLPLS; each variant's own CDRs replace them letter for letter. Scale: log10 of Kd in nM, estimated from mating counts; low values are strong binders. Where no diploid with the target was found in that replicate, the entry reads "ND": below detection, most likely a poor binder, though not proof of it. Nonspecific signal, from three strains lacking the peptide, appeared in 4% of pairings of all light chain designs, centred on 2.64 (5% of these signals below 1.59); values are not corrected for it. The control count says in how many pairings with the empty strains this scFv gave a signal, with their mean in brackets.

CDR-L1,CDR-L2,CDR-L3,"log10 Kd, replicates",empty controls
KLGGEQQNSTYEMDNVA,DVNTTYE,QHYSRLPLT,2.60 ND ND ND ND ND,1 of 18 (2.36)
KLDLTNGEMDKKGQNIA,EASTAGT,QSYWRLPLS,2.03 ND 1.34 1.31 2.82 1.93,0 of 18
RLTQQMYGFNRHANAIA,SGAERQW,QQYARLPIS,4.18 1.77 2.99 2.03 1.50 ND,0 of 18
SMYPFEVAIGEGTNNVA,HVSVRAL,QQYFRLPLV,ND ND ND 3.62 ND ND,0 of 18
NISIEDVSEHNDANNVA,STDCRCD,QQYFMLPLM,1.77 0.95 1.06 0.89 1.03 1.20,1 of 18 (2.71)
KLAMILSMQAGTYHGVA,DANHKAD,QQYNRLPLS,-0.30 0.06 0.12 0.23 -0.03 0.30,1 of 18 (2.21)
RMDMALTHAHNNVNSIA,EGAMVAD,QQYDRLPLW,2.00 1.60 0.80 2.82 1.63 1.88,0 of 18
NLNDSDMYMSQMTDNIA,QDTLRNE,QQYAKLPLS,0.89 0.81 0.31 0.97 0.82 0.43,1 of 18 (2.09)
MITGSMEQEWSNKNPVA,SATDKAP,QSYFRLPLM,0.41 0.93 0.79 0.97 1.05 0.91,1 of 18 (2.34)
QLEQLQWPMGKDWHSIA,NATTLLA,QQYYYLPLM,ND 0.75 ND 0.64 3.29 0.80,0 of 18
RLNVFQNVSTQGNNNIA,GAEQKVH,QQYMRLPLY,0.07 0.15 0.09 -0.18 -0.06 0.29,3 of 18 (3.17)
SLIPFENQIMKGLNNIA,NTQVRAS,QQYMRLPFM,-0.04 -0.12 -0.29 -0.19 -0.12 0.12,0 of 18
KVQNHSSGTLNDKNAVA,EDKNVAV,QQYVRLPLI,ND 3.27 ND ND 5.38 ND,2 of 18 (3.39)
SMQLDQIEGNQQQNSIA,GESIADM,QHYERLPLT,ND ND ND ND ND ND,0 of 18
YMSMYLDMQDDIQCGVA,DANVRNA,QQYQRLPLS,0.91 0.84 0.95 1.37 0.96 1.90,0 of 18
SLMHLSFVHPYEWNNVA,DASVKVS,QQYFRLPLV,1.94 1.32 0.85 0.83 1.19 1.29,0 of 18
NISYHQGEPTNSVNNVA,QTSKRAH,QQYQHLPLC,1.91 1.93 1.85 2.33 1.80 2.14,0 of 18
NISYLQGLSTNSVNNVA,QASMRAP,QYYQRLPLC,1.01 0.53 ND 0.36 0.41 1.42,0 of 18
KVTMYELEMRFNGSAVA,AAEVRAP,QQYWRLPLE,1.59 1.67 1.52 3.61 2.09 ND,0 of 18
NMRNECYQYENYGNSIA,HANMRHN,QQYSRLPFT,0.86 0.46 0.79 0.58 0.47 0.72,2 of 18 (3.12)
KLNKHAWDFNATWNSVA,DHSMRVT,QDYIRLPLT,1.10 0.80 1.23 1.05 1.14 1.23,1 of 18 (2.09)
KLGGESYNSTYAMDAVA,DQNTAYE,QHYSRLPLT,ND ND ND ND ND ND,0 of 18
RLFNKMGQLQNIAQNVA,NATTVID,QQYMRLPIT,ND ND ND ND ND ND,0 of 18
KFNGAWPGDIQNNQNIA,SADTLNH,QQYAKLPLS,0.80 0.62 0.63 0.67 0.49 0.79,3 of 18 (3.46)
TLMHHQDRYDNWKKSIA,EASIRAS,QQYQRLPLA,0.94 1.02 0.52 0.36 0.20 0.56,0 of 18
QLGKNQSGDTLSQNAIA,HAALLVD,QQYFQLPLL,1.03 1.30 0.77 1.47 1.46 2.03,0 of 18
HVAQTRQADISNKKSVA,EGEVLID,QQYGRLPFS,1.79 1.08 1.51 1.71 1.82 1.52,0 of 18
IIAENSDDLTEKLNSIA,ETSQVTQ,QQYHLLPLA,ND ND ND ND ND ND,0 of 18
TLYMGPTEARDSKHAIA,NMNERDY,QQYHRLPLV,0.41 0.67 0.67 -0.01 0.58 0.48,0 of 18
KINERLRSGENIQHSIA,NATEIVH,QQYHNLPLG,1.36 1.47 1.18 1.34 2.25 1.88,1 of 18 (2.75)
RFSYEYEMVNTAKESIA,NAHTVQM,QQYSRLPLA,1.12 0.52 1.08 0.99 0.73 0.86,0 of 18
KIQLNVVDGWAMHNNIA,GDAWRAR,QQYYHLPLM,1.21 2.10 1.28 0.87 0.93 0.72,2 of 18 (2.03)
QLQLQPLFGANAQSSIA,DVSEADM,QQYARLPLH,ND ND ND 1.46 ND ND,0 of 18
HFDQTEQEGIQDKNSVA,QGSQVAS,QHYSKLPLS,ND 2.20 1.14 2.39 1.03 2.17,0 of 18
RIDSVWEMLTNRAQNIA,NATTVIA,QDYMRLPLV,1.51 1.86 0.92 0.48 0.95 1.53,0 of 18
KMRVSALQGIYRSDSIA,STDIRVL,QQYHHLPLS,1.11 0.70 0.94 0.56 0.68 1.03,1 of 18 (2.97)
HVSNLLTDEMTREYNIA,ETSHVEE,QQYERLPLI,0.66 0.87 0.89 0.49 0.57 0.82,2 of 18 (2.88)
KLQLNVVDGWAMHNNIA,GDAHRAR,QQYYHLPLM,ND 0.73 ND ND 0.13 ND,0 of 18
KLSMKTYGPTEDKSNVA,NDEMRWQ,QQYDKLPLI,2.95 ND ND 1.94 2.47 2.85,3 of 18 (2.74)
RFDAAMPYANSNINSIA,DKAIQAD,QQYNRLPLS,0.30 0.01 0.02 -0.01 0.23 0.19,2 of 18 (2.98)
KLYDDATSRVQTAENIA,EKTESLQ,QQYHRLPLS,1.08 1.74 1.26 1.39 1.33 1.43,0 of 18
RITILSDYYNENRNAIA,ETSLKAH,QQYQMLPLT,ND 2.18 ND 1.54 1.09 ND,1 of 18 (1.88)
MINMEIGIEDMKWQAVA,SAHVRAH,QQYGRLPFS,ND 3.52 ND ND 1.32 ND,0 of 18
SMSNLQINPDVWKNSIA,DAEHVEY,QQYSRLPLT,0.59 0.51 0.20 0.18 0.00 0.48,3 of 18 (2.03)
KIYYHGVLDGNEQNGIA,GQDIRQG,QQYYRLPLV,2.43 2.14 1.92 1.99 3.89 1.85,0 of 18
LLQQDFYNERNQANAVA,DGNQLAS,QDYARLPLV,0.43 0.43 0.59 0.21 0.80 0.39,0 of 18
QLGKNQVGDTLSQNAIA,HDALRVD,QQYFRLPLL,0.69 0.23 0.21 0.22 0.45 0.33,0 of 18
HVNHEYLDYKNYENNIA,HVSQRLY,QQYSHLPLS,0.51 0.38 0.54 0.46 0.81 0.54,3 of 18 (3.31)
NISIEDVSEHNFANNVA,STSCRCS,QQYFHLPLD,2.25 1.21 1.39 3.48 1.42 2.19,1 of 18 (2.26)
HFQHLGFGDFAWANSIA,ERSQVCE,QQYFRLPLG,1.31 0.61 1.06 0.38 1.51 2.10,0 of 18

Again, the first 4 entries without any signal:

CDR-L1	CDR-L2	CDR-L3	log10 Kd, replicates	empty controls
SMQLDQIEGNQQQNSIA	GESIADM	QHYERLPLT	ND ND ND ND ND ND	0 of 18
KLGGESYNSTYAMDAVA	DQNTAYE	QHYSRLPLT	ND ND ND ND ND ND	0 of 18
RLFNKMGQLQNIAQNVA	NATTVID	QQYMRLPIT	ND ND ND ND ND ND	0 of 18
IIAENSDDLTEKLNSIA	ETSQVTQ	QQYHLLPLA	ND ND ND ND ND ND	0 of 18

In the paper, a design with two or fewer of six values counts as a poor binder. Values of this round are not directly comparable with the first-round values of the same sequences. Of ten entries with the parent sequence, four were seen in most replicates (averages 0.34 to 2.37), three in one and three in none, so single entries are noisy.